Results: PMC3956872 (PLoS ONE, 2014)

Test system: O=C(O)[C@@H]1CCCN1
Assay: cells, lysate or membranes
Details: T. cruzi epimastigotes overexpressing TcAAAP069 (endogenous background uptake present), 28 °C, PBS, no D-proline, labelled compound

With “TcAAAP069 (Trypanosoma cruzi strain CL Brener)” the Km was 0.38 (± 0.05) mM.
